Results as given in publication PMC6120983, “Chimeric Proteins Containing MAP-1 and Functional Domains of C4b-Binding Protein Reveal Strong Complement Inhibitory Capacities” (Frontiers in Immunology, 2018).

T1: recombinant MAP-1 (human, UniProt P48740-3 20-380)
T1 construct: MBL/ficolin/CL-associated protein 1 (MAP-1, MAp44), product of the MASP1 gene; construct of the in-house rMAP-1 not described; also called rMAP-1; MAp44; source: produced in house
T1 sequence (looked up): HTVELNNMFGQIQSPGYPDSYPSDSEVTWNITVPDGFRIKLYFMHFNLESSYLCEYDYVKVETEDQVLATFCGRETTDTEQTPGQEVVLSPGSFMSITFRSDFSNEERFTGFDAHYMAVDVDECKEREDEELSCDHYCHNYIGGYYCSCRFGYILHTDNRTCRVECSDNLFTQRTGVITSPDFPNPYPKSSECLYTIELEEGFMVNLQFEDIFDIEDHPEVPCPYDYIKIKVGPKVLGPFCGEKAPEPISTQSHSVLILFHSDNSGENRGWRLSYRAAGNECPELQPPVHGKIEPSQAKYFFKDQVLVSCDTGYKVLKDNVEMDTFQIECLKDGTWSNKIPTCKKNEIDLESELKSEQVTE

B1: recombinant MBL (natural protein, UniProt P11226 21-248, looked up)
chain: ETVTCEDAQKTCPAVIACSSPGINGFPGKDGRDGTKGEKGEPGQGLRGLQGPPGKLGPPGNPGPSGSPGPKGQKGDPGKSPDGDSSLAASERKALQTEMARIKKWLTFSLGKQVGNKFFLTNGEIMTFEKVKALCVKFQASVATPRNAAENGAIQNLIKEEAFLGITDEKTEGQFVDLTGNRLTYTNWNEGEPNNAGSDEDCVLLLKNGQWNDVPCSTSHLAVCEFPI
notes: Oligomeric collectin; held on mannan-coated wells in the ELISA; Detected with an anti-human MBL antibody, so probably human; also called rMBL; source: produced in house
B2: recombinant CL-11 (natural protein, UniProt Q9BWP8 26-271, looked up)
chain: QPAGDDACSVQILVPGLKGDAGEKGDKGAPGRPGRVGPTGEKGDMGDKGQKGSVGRHGKIGPIGSKGEKGDSGDIGPPGPNGEPGLPCECSQLRKAIGEMDNQVSQLTSELKFIKNAVAGVRETESKIYLLVKEEKRYADAQLSCQGRGGTLSMPKDEAANGLMAAYLAQAGLARVFIGINDLEKEGAFVYSDHSPMRTFNKWRSGEPNNAYDEEDCVEMVASGGWNDVACHTTMYFMCEFDKENM
notes: collectin-11 (CL-11, CL-K1); Held on mannan-coated wells in the ELISA; also called rCL-11; collectin-11; source: produced in house

Target: T1, recombinant MAP-1
Experiment: ELISA; rMBL or rCL-11 (2 μg/ml) held on mannan-coated wells; serial dilutions of the proteins from 13.5 nM in TBS/Tween/Ca^2+ (5 mM CaCl2), 2 h; detected with biotinylated anti-MASP-1/-3/MAP-1 mAb 8B3; Kd = concentration at half of the maximum binding, fit specific binding with Hill slope, Bmax shared
Conditions: both partners purified

Row | Binder | Kd [nM]
1 | B1 | 0.14
2 | B2 | 1.65
